13 compounds from patent EP4806900A2, “RAS INHIBITORS” (Revolution Medicines, Inc., priority 2019, dated 2021) can be followed below.

pIC50: −log10 of the molar value. Where only a bound is given, the exact number is not on record here.

In the experiment the test system is NCI-H358 (K-Ras G12C). Briefly: CellTiter-Glo cell viability assay, NCI-H358. In kind it is cell-based, human. The settings on record: read-out: H358 Cell Viability assay data (K-Ras G12C, IC50); Table 5. A general note: ATP-based viability assays read luminescence as a measure of living cells.
The term pIC50 denotes −log10 of the IC50, conventionally taken in molar units. `C=CC(=O)N1CC[C@H](C(=O)N(C)[C@H](C(=O)N[C@H]2Cc3cc(O)cc(c3)-c3ccc4c(c3)c(c(-c3cccnc3[C@H](C)OC)n4C)CC(C)(C)COC(=O)[C@@H]3CCCN(N3)C2=O)C(C)C)C1`: the pIC50 was 7.00 to 8.00. As for `CCn1c(-c2cccnc2COC)c2c3cc(ccc31)-c1cc(O)cc(c1)C[C@H](NC(=O)[C@H](C(C)C)N(C)C(=O)[C@H]1CCN(C(=O)C#CC(C)(C)N(C)C)C1)C(=O)N1CCC[C@H](N1)C(=O)OCC(C)(C)C2`, the figure is over 8.00; as for `C=CC(=O)N1CC[C@H](C(=O)N(C)[C@H](C(=O)NC2CC3CN(CCO3)c3ccc4c(c3)c(c(-c3cccnc3[C@H](C)OC)n4CC)CC(C)(C)COC(=O)[C@@H]3CC(Br)CN(N3)C2=O)C(C)C)C1` (stereo partly shown), under 6.00.

On to `C=CC(=O)N1CC[C@H](C(=O)N(C)[C@H](C(=O)N[C@H]2Cc3cccc(c3)-c3ccc4c(c3)c(c(-c3cccnc3[C@H](C)OC)n4CC)CC(C)(C)COC(=O)[C@@H]3CCCN(O3)C2=O)C(C)C)C1`, for which the negative-log IC50 (pIC50) was 6.00 to 7.00. Consider `C=CC(=O)N1CC2C(C1)C2C(=O)N(C)[C@H](C(=O)N[C@H]1Cc2cc(O)cc(c2)-c2ccc3c(c2)c(c(-c2cccnc2[C@H](C)OC)n3CC)CC(C)(C)COC(=O)[C@@H]2CCCN(N2)C1=O)C(C)C` (stereo partly shown), for which the negative-log IC50 (pIC50) was 7.00 to 8.00. Under `C=CC(=O)N1CC[C@H](C(=O)N(C)[C@H](C(=O)NC2CC3CN(CCO3)c3ccc4c(c3)c(c(-c3cccnc3COC)n4CC)CC(C)(C)COC(=O)[C@@H]3CCCN(N3)C2=O)C(C)C)C1` (stereo partly shown) stands under 6.00; under `C=CC(=O)N(C)[C@H]1C[C@@H]1N(C)C(=O)N(C)[C@H](C(=O)N[C@H]1Cc2nc(cs2)-c2ccc3c(c2)c(c(-c2cccnc2[C@H](C)OC)n3CC)CC(C)(C)COC(=O)[C@@H]2CCCN(N2)C1=O)C(C)C`, over 8.00. `C=CC(=O)N1CCC(C#N)(C(=O)N(C)[C@H](C(=O)N[C@H]2Cc3cccc(c3)-c3ccc4c(c3)c(c(-c3cccnc3[C@H](C)OC)n4CC)CC(C)(C)COC(=O)[C@@H]3CCCN(N3)C2=O)C(C)C)C1` (stereo partly shown): the pIC50 was over 8.00. As for `CCn1c(-c2cccnc2[C@H](C)OC)c2c3cc(ccc31)-c1cccc(c1)C[C@H](NC(=O)[C@H](C(C)C)N1CC[C@]3(CCN(C(=O)C#C[C@]4(N(C)C)CCOC4)C3)C1=O)C(=O)N1CCC[C@H](N1)C(=O)OCC(C)(C)C2`, the figure is over 8.00. Under `C=CC(=O)N1CC[C@H](C(=O)N(C)[C@H](C(=O)NC2CC3CN(CCO3)c3ccc4c(c3)c(c(-c3cccnc3[C@H](C)OC)n4CC)CC(C)(C)COC(=O)[C@@H]3CCCN(N3)C2=O)C(C)C)C1` (stereo partly shown) stands under 6.00; under `CCn1c(-c2cncnc2)c2c3cc(ccc31)-c1cccc(c1)C(OC)[C@H](NC(=O)[C@H](C(C)C)N(C)C(=O)[C@H]1CCN(C(=O)C#CCN3CCOCC3)C1)C(=O)N1CCC[C@H](N1)C(=O)OCC(C)(C)C2` (stereo partly shown), under 6.00; under `CCn1c(-c2cccnc2[C@H](C)OC)c2c3cc(ccc31)-c1cccc(c1)C[C@H](NC(=O)[C@H](C(C)C)N1CC[C@]3(CCN(C(=O)C#C[C@@H]4COCCN4C4COC4)C3)C1=O)C(=O)N1CCC[C@H](N1)C(=O)OCC(C)(C)C2`, 7.00 to 8.00. For the compound `CCn1c(-c2cccnc2COC)c2c3cc(ccc31)-c1cc(C)cc(c1)C[C@H](NC(=O)[C@@H](C(C)C)N(C)C(=O)[C@H]1CCN(C(=O)C#CCN(C)C)C1)C(=O)N1CCC[C@H](N1)C(=O)OCC(C)(C)C2`, the pIC50 is 7.00 to 8.00.
